{"source": "PubChem BioAssay AID1199", "about": "(EPA DSSTox, 2008)", "tested_on": "mouse carcinogenicity bioassay, TD50 from CPDB", "assay": "DSSTox (CPDBAS) Carcinogenic Potency Database Summary Mouse Bioassay Results", "conditions": "TD50_Mouse_Note: no positive results; TargetSites_Mouse_Female: no positive results", "source_text": "The Carcinogenic Potency Database (CPDB) is a unique and widely used international resource of the results of over 6500 chronic, long-term animal cancer tests on over 1500 chemical substances. The CPDB provides easy access to the bioassay literature, with qualitative and quantitative analyses of both positive and negative experiments that have been published over the past 50 years in the general literature and by the National Cancer Institute/National Toxicology Program. The CPDB standardizes the diverse literature of cancer bioassays that vary widely in protocol, histopathological examination and nomenclature, and in the published author's choices of what information to provide in their papers. Results are reported in the CPDB for tests in rats, mice, hamsters, dogs, and nonhuman primates, and are based on the most positive result among all experiments for each sex-species. The DSSTox CPDBAS (all species) file incorporates data from the CPDB Summary Tables for the full list of over 1500 chemical substances tested in at least one species. Summary bioassay results for Mouse (TD50, tumor sites, male, female, both sexes) are provided in the CPDB Summary Tables and the DSSTox CPDBAS file for over 1000 chemical substances.\nTD50 is a standardized quantitative measure of carcinogenic potency (analogous to an LD50) and is reported in the CPDB Summary Table for each species. […]", "note": "Some of these compounds have results that are not shown, active ones among them. The source made the active and inactive calls.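 Rule for the calls: active = a tumour-causing dose and a tumour site recorded for mice in at least one sex group; inconclusive = only government mouse studies exist and were judged inadequate; inactive = mouse studies exist but none gave tumours.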"}
{"smiles": "N#CC(C#N)=Cc1ccccc1Cl", "values": [{"measurement": "outcome", "result": "inactive; no positive results"}]}
